Assay results from ChEMBL document CHEMBL1129773, “Novel 1,2-diarylcyclobutenes: Selective and orally active cox-2 inhibitors” (Bioorg Med Chem Lett, 1996).

Chains of the proteins cited; added tags and fusions are not shown.
UniProt P23219, whole entry: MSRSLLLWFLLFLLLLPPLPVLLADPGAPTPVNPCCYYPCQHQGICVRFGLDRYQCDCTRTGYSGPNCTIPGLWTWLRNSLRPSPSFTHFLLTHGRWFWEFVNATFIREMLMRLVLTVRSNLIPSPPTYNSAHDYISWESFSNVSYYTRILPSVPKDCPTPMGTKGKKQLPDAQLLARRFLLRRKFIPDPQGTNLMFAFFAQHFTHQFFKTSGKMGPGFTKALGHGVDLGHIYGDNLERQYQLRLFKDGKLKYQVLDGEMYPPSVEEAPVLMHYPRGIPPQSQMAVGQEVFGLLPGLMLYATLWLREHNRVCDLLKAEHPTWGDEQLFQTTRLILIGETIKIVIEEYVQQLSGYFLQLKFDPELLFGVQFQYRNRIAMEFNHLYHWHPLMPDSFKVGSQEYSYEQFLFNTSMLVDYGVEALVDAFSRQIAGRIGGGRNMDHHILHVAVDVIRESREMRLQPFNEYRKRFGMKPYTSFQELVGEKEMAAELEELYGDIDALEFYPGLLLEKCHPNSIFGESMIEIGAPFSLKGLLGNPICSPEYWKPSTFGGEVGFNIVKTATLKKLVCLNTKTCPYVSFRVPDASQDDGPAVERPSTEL

Target: Prostaglandin G/H synthase 1 (Homo sapiens, UniProt P23219)

Compound: CC1(C)C(=O)C(c2ccccc2)=C1c1ccc(S(C)(=O)=O)cc1
- IC50: 2000 nM
